Source: PubChem BioAssay AID1259423 (Fisher Drug Discovery Resource Center, 2018)
The entries are a selection whose mix differs from that of the whole data set. Some results for these compounds are left out of this collection, so the calls shown say nothing about other tests. Calls of active or inactive are those of the source. Rule as the data show it: active = activation above about 40%; inactive = the rest, inconclusive results apart.

system: Aedes aegypti neuropeptide Y-like receptor 7 (NPYLR7); assay: agonists of mosquito NPYLR7 receptor, primary screen, cell-based, Aedes aegypti, calcium fluorescence, mosquito biting behavior (AID 1259423); conditions: HEK293T NPYLR7/Galpha15, GCaMP6s calcium fluorescence; at 10 µM; stronger effect = higher value;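 also: 0% = vehicle and 100% = reference agonist at the receptor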

Row | Structure (SMILES) | activation
1 | N#CC(C#N)=Cc1ccc(Br)cc1 | inactive: 11.7%
2 | CN(C)C1(CNC(=O)c2cc(Br)c(Br)s2)CCCCC1 | inactive: 4.09%
